# From patent US10881709B2, “Immune system modulators and compositions” (Canimguide Therapeutics AB, priority 2015, dated 2021)
# Tested on: K562 target cells
# Experiment: NK-cell cytotoxicity (NKTEST, flow cytometry)
# Format: cell-based, human
# Settings: 10 ug/ml peptide, effector:target 40:1, four donors
# Experimental: The NK-cell cytotoxic activity of blood mononuclear cells from four healthy donors was tested. Mononuclear cells were separated by standard Ficoll-Paque® Plus (Pharmacia AB, Sweden) density gradient centrifugation from heparinized blood obtained from healthy donors. NK cell cytotoxic activity of the mononuclear cells was then tested using a commercial kit (NKTEST, Orpegen Pharma GmblI, Heidelberg, Germany) following the manufacturers protocol. Briefly, the kit contains cryopreserved, NK-sensitive target cells (K562) labeled with a lipophilic green fluorescent membrane dye, which enables discrimination of effector and target cells. After incubation with effector cells, killed target cells are identified by a DNA-stain, which penetrates and specifically stain the nuclei of dead target cells. This way the percentage of killed targets can be determined by flow cytometry. The mononuclear cells were preincubated for 30 min at 37° C. with the indicated peptides (peptides have been described previously) at 10 ug/ml. Target cells were then added, giving an effector:target ratio of 40:1, and the cell mixture incubated at 37° C. for 3-4 hours. Samples were analysed on a FACSCalibur (BD® Biosciences, San Jose, Calif.).
smiles,measurement,value
CC[C@H](C)[C@H](NC(=O)[C@H](CC(C)C)NC(=O)[C@H](CC(N)=O)NC(=O)[C@H](CCC(N)=O)NC(=O)[C@@H]1CCCN1C(=O)[C@H](CCC(=O)O)NC(=O)[C@H](CCC(=O)O)NC(=O)[C@@H](NC(=O)[C@H](CC(C)C)NC(=O)[C@@H]1CCCN1C(=O)[C@H](CCCCN)NC(=O)[C@H](Cc1ccccc1)NC(=O)[C@H](CCC(=O)O)NC(=O)[C@H](CC(=O)O)NC(=O)[C@H](Cc1ccccc1)NC(=O)[C@@H](N)C(C)C)C(C)C)C(=O)N[C@@H](CCCCN)C(=O)O [P3028],effect on NK-cell cytotoxicity (percent specific lysis of K562),reduced the percent specific lysis
